We go through one substance from article PMC11952830.

Experiment [1] addresses Cdc42EP3 (1-21), TMR labeled at the N-terminus (human) (UniProt Q9UKI2). Put plainly: fluorescence polarisation; fluorescence anisotropy; 5 nM TMR-labeled Cdc42EP3 residues 1 to 21 fixed, actin filaments titrated; 22 ul in a low volume 384-well plate. (In general: In fluorescence polarisation assays a small probe gives low polarisation when free and higher when bound to something large.)

For experiment [2], the target named is isolated Cdc42EP3 CRIB/BH1 domains (isolated N-terminus of Cdc42EP3), TMR labeled at the N-terminus (human). Description: fluorescence polarisation; fluorescence anisotropy; 20 nM TMR-labeled Cdc42EP3 or variant fixed, actin filaments (polymerized in 1x KMEI) titrated; 1 mg/ml BSA; single-site fit.

Regarding “actin (rabbit muscle) (from UniProt P68135 1-377) (natural protein)”, in experiment [1], the fold weakened affinity compared to the isolated N-terminus of Cdc42EP3 fell in the range of 3 to 4 fold. The same substance returned a fold reduced affinity compared to full-length Cdc42EP3 in experiment [2] of 2 fold.
